These are literature values, as cited in US7977431B2, “Dithiocarbamic esters” (LANXESS Deutschland GmbH, priority 2002, dated 2011).

Molecules are shown by their SMILES.

The conditions of this data set: parent form Z-H of substituent Z.

As for `c1c[nH]cn1` [imidazole], the pKa value was 14.5.
